Antibody variant affinities, Ab-14 heavy chain, assay B

The measurements come from Li et al. 2023 (doi:10.1038/s41467-023-39022-2) through the FLAb antibody collection.

Target peptide (SARS-CoV-2 spike, HR2 region): PDVDLGDISGINAS

Ab-14 is the parent antibody, in scFv form: VH, then a 15-residue (Gly4Ser)3 linker, then VL. The light chain is unchanged in all variants.
VH: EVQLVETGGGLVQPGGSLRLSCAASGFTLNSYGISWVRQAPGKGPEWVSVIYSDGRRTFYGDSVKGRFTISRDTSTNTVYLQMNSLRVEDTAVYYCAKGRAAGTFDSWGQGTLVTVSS
VL: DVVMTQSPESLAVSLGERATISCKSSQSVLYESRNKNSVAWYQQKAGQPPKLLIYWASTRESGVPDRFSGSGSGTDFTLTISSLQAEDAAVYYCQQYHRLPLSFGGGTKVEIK

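Phage display of a naive human antibody library on the peptide gave the parent. The variants were designed computationally from a first round of random CDR variants and then made and measured. Several design methods are mixed in this list. AlphaSeq pools MATa yeast showing the antibodies with MATalpha yeast showing the peptide. Mating (16 h, 30 °C) was followed by selection of diploids and sequencing of their barcodes. Scores were corrected for input abundance and mapped to Kd with protein pairs of known affinity run in the same pool. Each pool was mated in six replicate cultures.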

Each variant is given by its three heavy chain CDRs, as the data file delimits them; those of the parent are GFTLNSYGIS, VIYSDGRRTFYGDSVK, GRAAGTFDS. Variants here have more than six changes. The Kd shown is the geometric mean over detected replicates; a lower Kd is a better binder. An entry "no signal" has no value in the source: the pair was not observed among the diploids in any replicate. This suggests poor binding but is not conclusive.

* GFSLDEYGIS | VIYADGMRTFYQDDVK | GNVAGTFDS = 300 pM (6 of 6 replicates)
* GFDLEDYGIS | VIYADGRRTFYSDSVK | GEIAGTFDF = 430 pM (6 of 6 replicates)
* GFQLEEMGIS | VIYADGARTAYSSKVK | GGNGDKFDV = no signal (0 of 6 replicates)
* DFNLNEYGIS | VIYADGQRASYDDKVK | GQISGTFDD = no signal (0 of 6 replicates)
* GFSLDEYGIS | VIYADGRRTMYRDKVK | GELGCTIMG = no signal (0 of 6 replicates)
* GFDLNEYGIS | VIYADGKRTFYSDSVK | GQNAGTFDV = 250 pM (6 of 6 replicates)
* KFDIEEYGIS | VIYADGERTSYSNAVK | GNQGGTFNT = 12 nM (2 of 6 replicates)
* GFDLNEYGIS | VIYADGRRTAYADSVK | GEIAGTFDS = 650 pM (6 of 6 replicates)
* GFNLNEYGIS | VIYSDGRRTAYAGSVK | GQNAGTFDS = 2.6 nM (6 of 6 replicates)
* GFDIDEYGIS | VIYADGLRVFYKNRVK | GMYSGVIDM = no signal (0 of 6 replicates)
* GFDLDEYGIS | VIYADGKRTSYADSVK | GNVAGTFDV = 440 pM (6 of 6 replicates)
* GFDLDEYGIS | VIYADGKRTAYIDSVK | GNVAGTFDT = no signal (0 of 6 replicates)
* GFDLNEYGIS | VIYADGVRTAYADDVK | GNNAGTFDV = 4.4 nM (6 of 6 replicates)
* GYDLEEYGIS | VIYADGRRTAYADNVK | GMSGADGMF = no signal (0 of 6 replicates)
* GFDLSEYGIS | VIYADGRRASYTDAVK | GQVEGMLDV = 6.2 nM (1 of 6 replicates)
* GFDLNEYGIS | VIYADGRRTFYADSVK | GEVAGTFDL = 170 pM (6 of 6 replicates)
* GFDLGEYGIS | VIYADGQRAAYAQQFK | GEAGGAFDL = 360 pM (6 of 6 replicates)
* GFELSEYGIS | VIYADGVRVEYTQSVK | GQLGGSFLV = no signal (0 of 6 replicates)
* GNTLDEYGIS | VIYADGMRKAYINKFK | GMVTGTFDQ = no signal (0 of 6 replicates)
* GQDINEYGIS | VIYADGLRQAYSENVK | GNINQFDDV = no signal (0 of 6 replicates)
* GQDLNEYGIS | VIYADGKRVAYEDSVK | GKSKGLIFV = no signal (0 of 6 replicates)
* GFDLDEYGIS | VIYADGKRTAYTDSVK | GNQAGTFDL = 410 pM (6 of 6 replicates)
* GESLKEYGIS | VIYADGMRNAYASKVK | GKVSGVFNI = no signal (0 of 6 replicates)
* GFDLNEYGIS | VIYADGMRTSYADSVK | GGNAGTFDV = 550 pM (6 of 6 replicates)
* GFDLNEYGIS | VIYADGRRTFYTDSVK | GAEAGTFDQ = 270 pM (6 of 6 replicates)
* GFDLNEYGIS | VIYADGRRTAYDDSVK | GQVAGTFDS = 410 pM (6 of 6 replicates)
* GFDLNEYGIS | VIYADGMRTFYADSVK | GQAAGTFTL = no signal (0 of 6 replicates)
* GFDLDEYGIS | VIYADGVRTAYADSVK | GETAGTFDV = 520 pM (6 of 6 replicates)
* GKSLEEYGIS | VIYADGQRNAYAETVK | GNNGGVFGY = no signal (0 of 6 replicates)
* GKGLDEYGVS | VIYADGVRKSYVDDVK | GGIAGTFLY = 29 nM (6 of 6 replicates)
* GFQIDEYGIS | VIYADGKRSGYKNTVK | GNFNISGSI = 5.9 nM (6 of 6 replicates)
* GFDLDEYGIS | VIYADGRRTYYADSVK | GTNAGTFDS = 730 pM (6 of 6 replicates)
* GFDLNEYGIS | VIYADGMRTYYADDVK | GQNAGTFDV = 330 pM (6 of 6 replicates)
* GFDLNEYGIS | VIYADGMRTQYIDSVK | GEIAGTFDS = 1.1 nM (6 of 6 replicates)
* GADLQEYGIS | VIYADGNRYAYTNSVK | GTQAGSLIV = no signal (0 of 6 replicates)
* KFDLEAYGIS | VIYADGVRAAYVDKVK | GQTGAMFDM = no signal (0 of 6 replicates)
* GFDLNEYGIS | VIYADGMRTAYSDNVK | GENAGTFDI = 18 nM (6 of 6 replicates)
* GFDLDEYGIS | VIYADGKRTAYTDSVK | GNVAGTFDV = 920 pM (6 of 6 replicates)
* GFTLDSYHIS | VIYSDGRRKFYQDSDK | ARAFGTALS = no signal (0 of 6 replicates)
* GFNLDEYGIS | VIYADGMRRAYVDEVK | GYHSDVQLM = no signal (0 of 6 replicates)
* GFDLNEYGIS | VIYADGQRTAYADKVK | GNVAGTFDL = 300 pM (6 of 6 replicates)
* GESLESYGIS | VIYADGMRTSYTNSVK | GVWAGTFML = no signal (0 of 6 replicates)
* GFDLESYGIS | VIYADGRRTFYADDVK | GVNAGTFDI = 1.9 nM (6 of 6 replicates)
* GFDLNEYGIS | VIYADGVRTYYADSVK | GNVAGTFDQ = 360 pM (6 of 6 replicates)

Of ten entries with the parent sequence, four were seen in most replicates (averages 2.2 nM to 240 nM), three in one and three in none, so single entries are noisy. In the paper, a design with two or fewer of six values counts as a poor binder. As a blank, each scFv also met three strains without target: over all heavy chain designs, 1% of these pairings were detected, typically at 120 nM and seldom below 7.0 nM. The range of this assay differs from that of the first round, and the authors advise against merging the two.